Laboratory results: patent US20230218519A1, “FLUID GEL COMPOSITIONS” (The University of Birmingham, priority 2020, published 2023)

Assay: Release assay from PEG-DA fluid gel (trans-well, UV/Vis)
Type: physicochemical
Details: 3% v/v PEG-DA fluid gel (Example 5.3, 500 rpm), into PBS at 37° C., 5 hrs
Procedure: • Active amounts: […] • Standard concentrations of active in PBS were prepared. • Standards were pipetted into a quartz cuvette (1 mm pathlength). • UV/Vis spectroscopy was used to measure absorbance between 200 and 700 nm wavelength. • Curves were plotted and used to determine standard curves which were used to determine concentrations. • 0.5 ml PBS was added to the well of a 24 well plate. • The PBS was incubated at 37° C. to equilibrate. • 0.1 ml of the fluid gel containing active was placed in a trans-well insert. • The trans-well insert was placed into a well containing PBS. • After a given time period the trans-well insert was removed and placed in a fresh well of PBS. • The release media was then removed and analysed using […] spectroscopy. Concentrations were derived from the standard curves and cumulative release plotted as a function of time.

**Q.** Which “release of active agent from fluid gel” value does the source give for dextran blue here?
**A.** able to release
